Columns and labels:
Experiment in all cases: Western blot assay of substrate protein degradation in hPBMCs
Conditions in all cases: 24 hours treatment, compounds at 50 nM and 500 nM (concentration behind the class not stated)
[1] = target: IKZF3 (Homo sapiens, UniProt Q96SW2+Q9UKT9)
[2] = target: IKZF1 (Homo sapiens, UniProt Q13422+Q96SW2)
[3] = target: CK1α (Homo sapiens, UniProt P48729+Q96SW2)
[4] = target: WEE1 (Homo sapiens, UniProt P30291+Q96SW2)
[5] = target: GSPT1 (Homo sapiens, UniProt P15170+Q96SW2)
[6] = target: IKZF2 (Homo sapiens, UniProt Q96SW2+Q9UKS7)

Amino acid sequences for entries named in this document (tags omitted).
UniProt Q96SW2, whole entry: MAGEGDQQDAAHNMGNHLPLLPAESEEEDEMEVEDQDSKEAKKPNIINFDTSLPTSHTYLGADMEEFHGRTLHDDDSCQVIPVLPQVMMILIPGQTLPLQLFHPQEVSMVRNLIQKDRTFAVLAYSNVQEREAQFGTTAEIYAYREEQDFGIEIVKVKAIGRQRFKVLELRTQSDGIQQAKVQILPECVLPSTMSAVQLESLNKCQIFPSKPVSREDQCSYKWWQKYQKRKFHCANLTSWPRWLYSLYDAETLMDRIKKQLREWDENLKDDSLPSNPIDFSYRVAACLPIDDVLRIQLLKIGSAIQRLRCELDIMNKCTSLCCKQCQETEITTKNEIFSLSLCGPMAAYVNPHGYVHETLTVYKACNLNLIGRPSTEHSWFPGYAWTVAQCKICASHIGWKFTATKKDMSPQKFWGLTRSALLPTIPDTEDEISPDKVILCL
UniProt Q9UKT9, whole entry: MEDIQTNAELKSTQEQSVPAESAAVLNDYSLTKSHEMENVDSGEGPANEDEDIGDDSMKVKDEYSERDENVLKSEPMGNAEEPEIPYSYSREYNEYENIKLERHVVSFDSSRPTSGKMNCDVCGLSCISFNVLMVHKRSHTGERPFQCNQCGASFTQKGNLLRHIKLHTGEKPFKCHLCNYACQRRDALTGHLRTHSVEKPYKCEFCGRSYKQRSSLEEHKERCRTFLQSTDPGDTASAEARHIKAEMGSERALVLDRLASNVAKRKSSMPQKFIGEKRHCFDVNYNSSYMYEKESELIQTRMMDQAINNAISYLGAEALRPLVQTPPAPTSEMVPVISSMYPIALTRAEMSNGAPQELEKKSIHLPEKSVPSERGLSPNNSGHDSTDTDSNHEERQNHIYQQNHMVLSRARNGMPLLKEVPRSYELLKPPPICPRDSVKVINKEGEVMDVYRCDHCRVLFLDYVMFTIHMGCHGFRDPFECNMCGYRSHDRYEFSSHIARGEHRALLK
UniProt Q13422, whole entry: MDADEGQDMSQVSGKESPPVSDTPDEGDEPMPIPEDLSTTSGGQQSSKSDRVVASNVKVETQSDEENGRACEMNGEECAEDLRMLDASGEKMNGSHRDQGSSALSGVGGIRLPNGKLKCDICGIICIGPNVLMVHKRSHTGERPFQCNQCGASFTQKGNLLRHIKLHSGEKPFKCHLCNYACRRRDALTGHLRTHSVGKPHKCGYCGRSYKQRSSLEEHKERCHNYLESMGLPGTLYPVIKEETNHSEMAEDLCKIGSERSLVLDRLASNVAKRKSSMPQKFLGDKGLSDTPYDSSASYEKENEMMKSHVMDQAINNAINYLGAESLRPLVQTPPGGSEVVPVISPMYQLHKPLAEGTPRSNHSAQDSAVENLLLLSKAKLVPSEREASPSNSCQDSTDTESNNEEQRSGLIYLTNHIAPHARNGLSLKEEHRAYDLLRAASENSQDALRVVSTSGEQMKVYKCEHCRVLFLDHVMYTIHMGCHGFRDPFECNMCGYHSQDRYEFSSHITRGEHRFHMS
UniProt P48729, whole entry: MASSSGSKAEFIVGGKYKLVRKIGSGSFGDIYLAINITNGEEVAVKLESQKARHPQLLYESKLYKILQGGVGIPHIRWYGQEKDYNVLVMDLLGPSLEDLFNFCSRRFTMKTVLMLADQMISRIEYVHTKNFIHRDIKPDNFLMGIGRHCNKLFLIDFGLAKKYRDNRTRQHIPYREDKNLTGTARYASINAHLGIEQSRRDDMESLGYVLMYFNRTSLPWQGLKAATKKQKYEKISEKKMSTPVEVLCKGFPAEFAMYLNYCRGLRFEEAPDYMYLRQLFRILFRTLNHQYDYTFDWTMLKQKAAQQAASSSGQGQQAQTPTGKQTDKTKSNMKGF
UniProt P30291, whole entry: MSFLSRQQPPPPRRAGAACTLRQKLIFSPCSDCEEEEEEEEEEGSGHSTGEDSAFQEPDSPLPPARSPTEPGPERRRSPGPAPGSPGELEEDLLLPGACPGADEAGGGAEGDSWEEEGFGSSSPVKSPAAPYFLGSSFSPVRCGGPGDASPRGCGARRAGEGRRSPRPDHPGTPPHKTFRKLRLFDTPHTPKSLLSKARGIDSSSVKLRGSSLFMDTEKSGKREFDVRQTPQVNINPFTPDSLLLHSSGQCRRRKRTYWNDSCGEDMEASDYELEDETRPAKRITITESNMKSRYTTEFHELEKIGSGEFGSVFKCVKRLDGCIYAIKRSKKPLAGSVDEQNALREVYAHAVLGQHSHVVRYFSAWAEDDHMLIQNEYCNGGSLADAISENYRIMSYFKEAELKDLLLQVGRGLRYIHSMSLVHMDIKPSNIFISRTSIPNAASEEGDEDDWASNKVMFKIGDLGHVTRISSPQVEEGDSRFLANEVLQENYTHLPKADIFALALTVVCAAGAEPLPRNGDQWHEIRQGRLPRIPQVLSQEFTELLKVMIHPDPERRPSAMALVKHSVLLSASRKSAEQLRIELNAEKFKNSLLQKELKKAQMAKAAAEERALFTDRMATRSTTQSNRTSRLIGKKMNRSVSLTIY
UniProt P15170, whole entry: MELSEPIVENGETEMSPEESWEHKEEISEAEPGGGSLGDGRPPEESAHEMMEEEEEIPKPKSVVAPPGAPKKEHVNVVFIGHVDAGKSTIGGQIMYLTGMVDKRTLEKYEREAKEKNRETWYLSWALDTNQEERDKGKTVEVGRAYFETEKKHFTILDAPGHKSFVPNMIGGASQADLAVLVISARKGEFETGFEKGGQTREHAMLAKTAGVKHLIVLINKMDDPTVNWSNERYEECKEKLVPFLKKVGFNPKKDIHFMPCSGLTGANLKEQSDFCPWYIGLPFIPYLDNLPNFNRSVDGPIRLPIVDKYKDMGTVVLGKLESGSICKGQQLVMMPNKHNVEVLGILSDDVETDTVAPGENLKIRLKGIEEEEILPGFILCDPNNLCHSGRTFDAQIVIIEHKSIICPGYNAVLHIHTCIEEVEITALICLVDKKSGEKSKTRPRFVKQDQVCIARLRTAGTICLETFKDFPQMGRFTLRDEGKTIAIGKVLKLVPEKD
UniProt Q9UKS7, whole entry: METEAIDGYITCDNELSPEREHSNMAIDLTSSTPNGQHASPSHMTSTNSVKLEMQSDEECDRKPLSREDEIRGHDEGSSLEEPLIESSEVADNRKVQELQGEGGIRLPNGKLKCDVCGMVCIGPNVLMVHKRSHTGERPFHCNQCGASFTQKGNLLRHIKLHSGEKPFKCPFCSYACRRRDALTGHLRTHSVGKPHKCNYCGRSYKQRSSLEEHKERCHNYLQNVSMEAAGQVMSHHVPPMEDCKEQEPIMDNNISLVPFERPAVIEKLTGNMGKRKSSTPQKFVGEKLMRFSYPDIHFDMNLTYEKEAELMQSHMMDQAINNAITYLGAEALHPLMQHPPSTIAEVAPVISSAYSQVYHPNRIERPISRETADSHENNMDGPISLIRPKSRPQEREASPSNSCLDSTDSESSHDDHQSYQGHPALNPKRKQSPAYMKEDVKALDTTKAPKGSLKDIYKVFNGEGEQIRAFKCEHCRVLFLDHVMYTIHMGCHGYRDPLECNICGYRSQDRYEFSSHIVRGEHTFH
UniProt Q16531, whole entry partner: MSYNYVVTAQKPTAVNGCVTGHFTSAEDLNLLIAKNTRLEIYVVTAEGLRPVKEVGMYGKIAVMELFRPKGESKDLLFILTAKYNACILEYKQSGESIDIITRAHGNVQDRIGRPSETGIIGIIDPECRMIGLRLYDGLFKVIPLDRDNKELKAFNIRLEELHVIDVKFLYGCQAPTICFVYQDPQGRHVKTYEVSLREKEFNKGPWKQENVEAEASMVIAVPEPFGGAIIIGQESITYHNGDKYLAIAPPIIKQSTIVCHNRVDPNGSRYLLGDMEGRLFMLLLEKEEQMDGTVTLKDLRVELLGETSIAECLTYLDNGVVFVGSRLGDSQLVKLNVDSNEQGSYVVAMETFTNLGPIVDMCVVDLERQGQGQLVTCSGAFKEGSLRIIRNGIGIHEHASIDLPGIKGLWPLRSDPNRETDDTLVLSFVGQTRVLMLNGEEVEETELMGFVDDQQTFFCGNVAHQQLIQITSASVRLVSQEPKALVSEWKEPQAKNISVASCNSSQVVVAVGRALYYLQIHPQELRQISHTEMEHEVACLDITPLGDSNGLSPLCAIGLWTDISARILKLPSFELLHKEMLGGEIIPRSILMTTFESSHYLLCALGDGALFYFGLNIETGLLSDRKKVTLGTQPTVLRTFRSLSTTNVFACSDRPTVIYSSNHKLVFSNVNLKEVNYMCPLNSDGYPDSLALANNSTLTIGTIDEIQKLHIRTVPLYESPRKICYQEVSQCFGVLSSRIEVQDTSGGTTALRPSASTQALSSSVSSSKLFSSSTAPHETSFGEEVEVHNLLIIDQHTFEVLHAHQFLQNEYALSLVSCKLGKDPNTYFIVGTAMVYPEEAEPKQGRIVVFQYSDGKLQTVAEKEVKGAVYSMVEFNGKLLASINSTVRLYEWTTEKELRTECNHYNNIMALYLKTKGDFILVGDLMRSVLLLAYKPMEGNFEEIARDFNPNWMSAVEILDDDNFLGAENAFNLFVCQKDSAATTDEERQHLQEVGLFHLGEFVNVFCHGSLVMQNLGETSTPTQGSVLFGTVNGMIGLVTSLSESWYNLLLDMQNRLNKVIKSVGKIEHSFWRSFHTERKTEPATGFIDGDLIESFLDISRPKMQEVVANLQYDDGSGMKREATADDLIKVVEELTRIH

| SMILES | substrate protein remaining % (IKZF3) [1] | substrate protein remaining % (IKZF 1) [2] | substrate protein remaining % (CK1a) [3] | substrate protein remaining % (WEE1) [4] | substrate protein remaining % (GSPT1) [5] | substrate protein remaining % (IKZF2) [6] |
| --- | --- | --- | --- | --- | --- | --- |
| O=C1CCC(N2C(=O)c3cccc(CN4CCC(N5CCN(C(c6ccccc6)c6ccccn6)CC5)C(F)(F)C4)c3C2=O)C(=O)N1 (stereo not drawn) | B (80%< substrate protein remaining %≤ 100%) | B (80%< substrate protein remaining %≤ 100%) | A (0% ≤ substrate protein remaining % ≤ 80%) | B (80%< substrate protein remaining %≤ 100%) | A (0% ≤ substrate protein remaining % ≤ 80%) | B (80%< substrate protein remaining %≤ 100%) |
| O=C1CCN(N2Cc3cc(CN4CCC(N5CCN(C(c6ccccc6)c6ccccc6)CC5)C(F)(F)C4)ccc3C2=O)C(=O)N1 (stereo not drawn) | B (80%< substrate protein remaining %≤ 100%) | B (80%< substrate protein remaining %≤ 100%) | B (80%< substrate protein remaining %≤ 100%) | B (80%< substrate protein remaining %≤ 100%) | A (0% ≤ substrate protein remaining % ≤ 80%) | B (80%< substrate protein remaining %≤ 100%) |
| O=C1CCC(N2C(=O)c3cccc(C(=O)N4CCC(N5CCN(C(c6ccccc6)c6ccccn6)CC5)C(F)(F)C4)c3C2=O)C(=O)N1 (stereo not drawn) | B (80%< substrate protein remaining %≤ 100%) | B (80%< substrate protein remaining %≤ 100%) | B (80%< substrate protein remaining %≤ 100%) | B (80%< substrate protein remaining %≤ 100%) | A (0% ≤ substrate protein remaining % ≤ 80%) | B (80%< substrate protein remaining %≤ 100%) |
| O=C1CCC(N2C(=O)c3cccc(C(=O)N4CCC(N5CCN(c6noc7cc(F)ccc67)CC5)CC4)c3C2=O)C(=O)N1 (stereo not drawn) | B (80%< substrate protein remaining %≤ 100%) | A (0% ≤ substrate protein remaining % ≤ 80%) | B (80%< substrate protein remaining %≤ 100%) | B (80%< substrate protein remaining %≤ 100%) | A (0% ≤ substrate protein remaining % ≤ 80%) | B (80%< substrate protein remaining %≤ 100%) |
| CC1(C)CCC(CN2CCN(C3CCN(C(=O)c4ccc5c(c4)C(=O)N(C4CCC(=O)NC4=O)C5)CC3(F)F)CC2)=C(c2ccc(Cl)cc2)C1 (stereo not drawn) | A (0% ≤ substrate protein remaining % ≤ 80%) | B (80%< substrate protein remaining %≤ 100%) | B (80%< substrate protein remaining %≤ 100%) | B (80%< substrate protein remaining %≤ 100%) | B (80%< substrate protein remaining %≤ 100%) | B (80%< substrate protein remaining %≤ 100%) |
| O=C1CCC(N2Cc3cccc(CN4CCC(N5CCC(c6noc7cc(F)ccc67)CC5)C(F)(F)C4)c3C2=O)C(=O)N1 (stereo not drawn) | B (80%< substrate protein remaining %≤ 100%) | B (80%< substrate protein remaining %≤ 100%) | B (80%< substrate protein remaining %≤ 100%) | B (80%< substrate protein remaining %≤ 100%) | A (0% ≤ substrate protein remaining % ≤ 80%) | B (80%< substrate protein remaining %≤ 100%) |
| O=C1CCC(N2C(=O)c3ccc(CN4CCC(N5CC=C(c6cccc(Cl)c6Cl)CC5)C(F)(F)C4)cc3C2=O)C(=O)N1 (stereo not drawn) | B (80%< substrate protein remaining %≤ 100%) | B (80%< substrate protein remaining %≤ 100%) | B (80%< substrate protein remaining %≤ 100%) | B (80%< substrate protein remaining %≤ 100%) | A (0% ≤ substrate protein remaining % ≤ 80%) | B (80%< substrate protein remaining %≤ 100%) |
| O=C1CCC(N2C(=O)c3cccc(C(=O)N4CCC(N5CCN(C(c6ccccc6)c6ccccc6)CC5)CC4)c3C2=O)C(=O)N1 (stereo not drawn) | B (80%< substrate protein remaining %≤ 100%) | A (0% ≤ substrate protein remaining % ≤ 80%) | A (0% ≤ substrate protein remaining % ≤ 80%) | B (80%< substrate protein remaining %≤ 100%) | A (0% ≤ substrate protein remaining % ≤ 80%) | B (80%< substrate protein remaining %≤ 100%) |
| CC1(C)CCC(CN2CCN(C3CCN(Cc4ccc5c(c4)C(=O)N(N4CCC(=O)NC4=O)C5=O)CC3(F)F)CC2)=C(c2ccc(Cl)cc2)C1 (stereo not drawn) | A (0% ≤ substrate protein remaining % ≤ 80%) | B (80%< substrate protein remaining %≤ 100%) | B (80%< substrate protein remaining %≤ 100%) | B (80%< substrate protein remaining %≤ 100%) | A (0% ≤ substrate protein remaining % ≤ 80%) | B (80%< substrate protein remaining %≤ 100%) |
| O=C1CCC(N2C(=O)c3cccc(CN4CCC(N5CCN(c6noc7cc(F)ccc67)CC5)C(F)(F)C4)c3C2=O)C(=O)N1 (stereo not drawn) | A (0% ≤ substrate protein remaining % ≤ 80%) | B (80%< substrate protein remaining %≤ 100%) | B (80%< substrate protein remaining %≤ 100%) | B (80%< substrate protein remaining %≤ 100%) | B (80%< substrate protein remaining %≤ 100%) | A (0% ≤ substrate protein remaining % ≤ 80%) |
| O=C1CCC(N2C(=O)c3cccc(C(=O)N4CCC(N5CCN(C(c6ccccc6)c6ccccc6)CC5)C(F)(F)C4)c3C2=O)C(=O)N1 (stereo not drawn) | A (0% ≤ substrate protein remaining % ≤ 80%) | B (80%< substrate protein remaining %≤ 100%) | B (80%< substrate protein remaining %≤ 100%) | B (80%< substrate protein remaining %≤ 100%) | A (0% ≤ substrate protein remaining % ≤ 80%) | A (0% ≤ substrate protein remaining % ≤ 80%) |
| O=C1CCC(N2Cc3ccc(CN4CCC(N5CCN(c6cccc(Cl)c6Cl)CC5)CC4)cc3C2=O)C(=O)N1 (stereo not drawn) | B (80%< substrate protein remaining %≤ 100%) | A (0% ≤ substrate protein remaining % ≤ 80%) | B (80%< substrate protein remaining %≤ 100%) | B (80%< substrate protein remaining %≤ 100%) | A (0% ≤ substrate protein remaining % ≤ 80%) | A (0% ≤ substrate protein remaining % ≤ 80%) |
| O=C1CCC(N2C(=O)c3cccc(C(=O)N4CCC(N5CCN(c6cccc(Cl)c6Cl)CC5)CC4)c3C2=O)C(=O)N1 (stereo not drawn) | B (80%< substrate protein remaining %≤ 100%) | B (80%< substrate protein remaining %≤ 100%) | A (0% ≤ substrate protein remaining % ≤ 80%) | A (0% ≤ substrate protein remaining % ≤ 80%) | A (0% ≤ substrate protein remaining % ≤ 80%) | B (80%< substrate protein remaining %≤ 100%) |
| O=C1CCC(N2C(=O)c3ccc(C(=O)N4CCC(N5CCN(c6noc7cc(F)ccc67)CC5)CC4)cc3C2=O)C(=O)N1 (stereo not drawn) | B (80%< substrate protein remaining %≤ 100%) | A (0% ≤ substrate protein remaining % ≤ 80%) | B (80%< substrate protein remaining %≤ 100%) | B (80%< substrate protein remaining %≤ 100%) | A (0% ≤ substrate protein remaining % ≤ 80%) | B (80%< substrate protein remaining %≤ 100%) |
| O=C1CCC(N2C(=O)c3ccc(C(=O)N4CCC(N5CCN(c6noc7cc(F)ccc67)CC5)C(F)(F)C4)cc3C2=O)C(=O)N1 (stereo not drawn) | B (80%< substrate protein remaining %≤ 100%) | B (80%< substrate protein remaining %≤ 100%) | B (80%< substrate protein remaining %≤ 100%) | A (0% ≤ substrate protein remaining % ≤ 80%) | A (0% ≤ substrate protein remaining % ≤ 80%) | B (80%< substrate protein remaining %≤ 100%) |
| CC1(C)CCC(CN2CCN(C3CCN(Cc4cccc5c4C(=O)N(C4CCC(=O)NC4=O)C5=O)CC3(F)F)CC2)=C(c2ccc(Cl)cc2)C1 (stereo not drawn) | B (80%< substrate protein remaining %≤ 100%) | B (80%< substrate protein remaining %≤ 100%) | B (80%< substrate protein remaining %≤ 100%) | A (0% ≤ substrate protein remaining % ≤ 80%) | A (0% ≤ substrate protein remaining % ≤ 80%) | A (0% ≤ substrate protein remaining % ≤ 80%) |

Reference: patent publication EP4834897A1, “COMPOUNDS WITH TWO AZAHETEROCYCLES SUBSTITUTED ISOINDOLINONE SKELETON AND USES THEREOF” (dated 2026)
